This experiment deals with Intestinal-type alkaline phosphatase (Homo sapiens) (UniProt P09923). Description: human IAP activators, confirmation, biochemical, luminescence, single concentration, uHTS hits (AID 434926). The note with it: purified IAP, CDP-Star luminescence, 30 min; at 8.3 µM; hits give low values.

Protein sequences, listed by entry. Tags and fused reporters are not part of them. Lines headed by an entry give the natural chain unless they say otherwise; changes in a name come on top.
UniProt P09923: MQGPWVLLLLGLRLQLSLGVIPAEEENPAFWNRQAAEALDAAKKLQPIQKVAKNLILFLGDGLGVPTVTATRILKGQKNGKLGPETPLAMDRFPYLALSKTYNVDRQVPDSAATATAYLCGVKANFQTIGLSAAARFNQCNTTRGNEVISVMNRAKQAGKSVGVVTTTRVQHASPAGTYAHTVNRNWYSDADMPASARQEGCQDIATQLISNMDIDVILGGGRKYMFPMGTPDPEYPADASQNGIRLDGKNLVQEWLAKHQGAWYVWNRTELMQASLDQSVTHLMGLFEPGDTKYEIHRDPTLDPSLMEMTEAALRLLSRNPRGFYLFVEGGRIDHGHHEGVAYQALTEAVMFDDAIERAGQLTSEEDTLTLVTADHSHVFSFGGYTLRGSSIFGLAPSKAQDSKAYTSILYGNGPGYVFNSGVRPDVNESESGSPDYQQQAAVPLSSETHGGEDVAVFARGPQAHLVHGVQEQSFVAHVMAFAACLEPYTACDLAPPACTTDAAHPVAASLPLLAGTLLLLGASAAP

The entries are a selection whose mix differs from that of the whole data set. The source made the active and inactive calls.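 How the source made its calls: active means at least twofold enzyme activation in any of six single-dose repeats, which the averaged readout prints as negative percent; inactive means the rest.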

Consider `CCOP1(=S)c2c(C)nn(CCC#N)c2N=C(c2ccc(F)cc2)N1C` (stereo unspecified), for which the activation (%Activity, negative = activation) was active: -775%.

Values taken from PubChem BioAssay AID434926 (Sanford-Burnham Center for Chemical Genomics, 2010).
